Blank lines part the entries; values can stand above or below the molecule they belong to.
What was measured:
5-HT2B receptor = settings: cited from earlier work
histamine H1 receptor = settings: adenylyl cyclase and PLC signaling; cited from earlier work
[1] = biological target: human histamine H1 receptor (Homo sapiens, UniProt P35367); assay: Radioligand competitive displacement binding, H1
[2] = tested on: 5-HT2 receptor subtypes and H1 receptors; settings: at 5-HT2 receptor subtypes and H1 receptors, depending on receptor type

The chains behind the UniProt entries cited, without tags or fusion partners.
UniProt P35367, whole entry: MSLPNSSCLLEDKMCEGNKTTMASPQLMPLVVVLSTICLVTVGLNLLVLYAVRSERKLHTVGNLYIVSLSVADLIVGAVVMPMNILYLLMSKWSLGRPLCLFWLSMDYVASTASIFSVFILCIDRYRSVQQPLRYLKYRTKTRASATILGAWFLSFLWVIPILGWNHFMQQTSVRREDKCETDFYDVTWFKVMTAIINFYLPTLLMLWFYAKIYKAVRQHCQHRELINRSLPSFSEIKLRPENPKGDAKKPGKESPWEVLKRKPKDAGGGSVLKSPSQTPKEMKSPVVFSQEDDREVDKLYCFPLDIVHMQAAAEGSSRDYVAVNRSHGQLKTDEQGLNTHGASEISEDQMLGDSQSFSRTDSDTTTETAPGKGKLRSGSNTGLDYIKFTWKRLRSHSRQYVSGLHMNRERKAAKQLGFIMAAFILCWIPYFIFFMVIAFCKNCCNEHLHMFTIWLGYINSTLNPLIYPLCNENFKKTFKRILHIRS

Structure (SMILES): CN(C)[C@@H]1Cc2ccccc2[C@@H](c2ccccc2)C1 (relative stereo) [(−)-trans-PAT, (2S, 4R)-(−)-trans-4-phenyl-N,N-dimethyl-1,2,3,4-tetrahydronaphthalen-2-amine]
functional activity at 5-HT2B receptors (5-HT2B receptor): inverse agonist (and competitive antagonist) activity
functional activity at H1 receptor signaling (histamine H1 receptor): activates H1 receptor-mediated adenylyl cyclase signaling but is an antagonist at H1-linked PLC signaling

Ki [1]: 680 nM
Structure (SMILES): CN(C)[C@H]1Cc2ccccc2[C@H](c2ccc([N+](=O)[O-])cc2)C1 (relative stereo) [Analog 5j, trans-4-(4′-Nitrophenyl)-N,N-dimethyl-1,2,3,4-tetrahydronaphthalen-2-amine]

Structure (SMILES): CN(C)C1Cc2ccccc2C(c2ccccc2)C1 (stereo not shown) [PAT, 4-phenyl-2-dimethylaminotetralin]
higher affinity for the (−)- over (+)-enantiomer [2]: 3–15 fold
